“And” between values parts separate entries of the source, which are not always exact repeats. Equal entries are not always repeated.
Test system: H1N1 virus (wsn/33)
Assay type: cell-based, Influenza A H1N1 wsn/33

COc1ccc2cc(C(C)C(=O)O)ccc2c1 (stereo not shown) [Naproxen]
Protection %: 48 ± 2% and 47 ± 2%

— patent US20180028478A1, “ANTIVIRAL COMPOSITIONS DIRECTED AGAINST THE NUCLEOPROTEIN OF INFLUENZA VIRUSES” (priority 2011, published 2018)
